Test results from paper PMC9519446, “Discovery of an Orally Active Benzoxaborole Prodrug Effective in the Treatment of Chagas Disease in Non-human Primates” (Nature microbiology, 2022).

System: tdTomato expressing T. cruzi (CL strain)
Test: Rapid in vivo assay: footpad infection, single oral dose, fluorescence imaging 2 and 4 dpi (proliferation index)
Design: species or system C57BL/6 mice
Conditions: Fig. 3a; individual footpads
Procedure: C57BL/6 mice were injected in the hind footpads with 2.5x10^5 tdTomato expressing T. cruzi (CL strain) and orally treated with a single dose of the compounds (50 mg/kg) at 2 dpi. Fluorescent intensity of the feet was measured at 2 dpi before compound administration and at 4 dpi in the Maestro in vivo imaging system equipped with the software Maestro 2.1.0 (CRi) as previously described. The proliferation index was estimated as PI=[(T4d – T2d)/(mUnt4d-mUnt2d)]*100; where T4d and T2d are the fluorescence intensity of the feet of the treated animals at days 4 and 2 post-infection respectively; mUnt4d and mUnt2d are the average fluorescence intensity of the feet of the untreated animals at 4 and 2 dpi respectively.

How did the “Parasite proliferation index of footpads infected with tdTomato-expressing T. cruzi” value turn out when Cc1c(C(=O)N[C@H](C(=O)OCC2CCOCC2)C(C)C)ccc2c1B(O)OC2 [AN15368] was run?
Its value is -34.4 and -61.2 and 16.3 and -0.5 and -23.3 and -8.5 and 9.6 and -13.5 and -3.4 and 18.2.

“And” between values parts separate entries of the source, which are not always exact repeats. Equal entries are not always repeated.
